Experimental data reported in ChEMBL document CHEMBL1152232, “Muscarinic acetylcholine receptor antagonists: SAR and optimization of tyrosine ureas” (Bioorg Med Chem Lett, 2008).

Sequences of proteins named here, by UniProt entry; tags and fusion partners are left off. A change or cut given only in a name is not applied to a line headed by its entry.
UniProt P11229: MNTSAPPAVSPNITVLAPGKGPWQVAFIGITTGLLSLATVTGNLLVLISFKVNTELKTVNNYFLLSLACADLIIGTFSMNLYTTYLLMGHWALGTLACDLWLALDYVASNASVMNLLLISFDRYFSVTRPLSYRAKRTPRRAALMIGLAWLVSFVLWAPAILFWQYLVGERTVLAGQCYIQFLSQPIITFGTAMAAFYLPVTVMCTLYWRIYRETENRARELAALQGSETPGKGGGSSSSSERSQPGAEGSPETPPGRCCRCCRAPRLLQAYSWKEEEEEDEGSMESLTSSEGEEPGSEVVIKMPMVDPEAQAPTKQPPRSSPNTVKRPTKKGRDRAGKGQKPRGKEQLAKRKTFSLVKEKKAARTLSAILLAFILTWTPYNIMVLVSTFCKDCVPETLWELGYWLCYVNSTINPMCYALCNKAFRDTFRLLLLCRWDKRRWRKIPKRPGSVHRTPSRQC

Molecular target: Muscarinic acetylcholine receptor M1 (Homo sapiens, UniProt P11229)
Experiment: Antagonist activity at human recombinant muscarinic M1 receptor expressed in CHO cells assessed as inhibition of acetylcholine-induced intracellular Ca2+ mobilization by FLIPR assay
Assay type: functional, cell-based
Details: read-out: pA2 (converted)

Question: For `CC(C)OC(=O)c1ccc(NC(=O)N[C@@H](Cc2ccc(O)cc2)C(=O)N[C@H]2CCC[N+](C)(Cc3cccc(O)c3)C2)cc1.[I-]` (stereo partly specified), which Kb is on record?
Answer: The Kb was 15.8 nM.
